{"source": "paper PMC9455983", "about": "(International Journal of Molecular Sciences, 2022)", "tested_on": "C57BL/6J mice", "test": "Opioid antagonist activity of 1968-22 against opioid agonists (tail-withdrawal assay)", "details": "2.5 h pretreatment, 0.3 nmol i.c.v.; U50,488 10 mg/kg, i.p.", "data": [{"smiles": "Cc1cc(O)cc(C)c1C[C@H]1CN([C@@H](Cc2c(C)cc(O)cc2C)CN2C(=N)NC[C@@H]2C)C(=N)N1", "note": "[1968-22]", "values": [{"measurement": "antagonism of U50,488-induced antinociception", "value": "did not have an effect"}]}]}
